Target: Recombinant human cathepsin S (CatS) (Homo sapiens, UniProt P25774)
Test: biochemical

The chains behind the UniProt entries cited, without tags or fusion partners. Residues count along the entry.
UniProt P25774, 115-331: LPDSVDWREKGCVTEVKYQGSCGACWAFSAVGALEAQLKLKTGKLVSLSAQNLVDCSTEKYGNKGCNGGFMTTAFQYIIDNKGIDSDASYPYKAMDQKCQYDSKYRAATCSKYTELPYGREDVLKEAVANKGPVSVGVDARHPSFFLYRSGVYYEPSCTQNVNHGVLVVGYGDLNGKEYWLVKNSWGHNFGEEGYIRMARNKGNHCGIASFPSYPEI

| Structure (SMILES) | IC50 [nM] |
| --- | --- |
| Cn1cc(C2CCN(CC(O)Cn3nc(-c4ccc(C(F)(F)F)cc4)c4c3CCN(S(C)(=O)=O)C4)CC2)c2ccc(Cl)cc21 (stereo not drawn) [Example 105, 1-[4-(6-Chloro-1-methyl-1H-indol-3-yl)-piperidin-1-yl]-3-[5-methanesulfonyl-3-(4-trifluoromethyl-phenyl)-4,5,6,7-tetrahydro-pyrazolo[4,3-c]pyridin-1-yl]-propan-2-ol] | 630 |
| CC(=O)N1CCc2c(c(-c3ccc(Br)cc3)nn2CC(O)CN2CCC(c3cn(CCN4CCOCC4)c4cc(Cl)ccc34)CC2)C1 (stereo not drawn) [Example 110, 1-[3-(4-Bromo-phenyl)-1-(3-{4-[6-chloro-1-(2-morpholin-4-yl-ethyl)-1H-indol-3-yl]-piperidin-1-yl}-2-hydroxy-propyl)-1,4,6,7-tetrahydro-pyrazolo[4,3-c]pyridin-5-yl]-ethanone] | 140 |
| CC(=O)N1CCc2c(c(-c3ccc(C(F)(F)F)cc3)nn2CC(O)CN2CCC(c3c[nH]c4ncccc34)CC2)C1 (stereo not drawn) [Example 111, 1-[1-{2-Hydroxy-3-[4-(1H-pyrrolo[2,3-b]pyridin-3-yl)-piperidin-1-yl]-propyl}-3-(4-trifluoromethyl-phenyl)-1,4,6,7-tetrahydro-pyrazolo[4,3-c]pyridin-5-yl]-ethanone] | 170 |
| CS(=O)(=O)N1CCc2c(c(-c3ccc(C(F)(F)F)cc3)nn2CCCN2CCC(c3c[nH]c4ncccc34)CC2)C1 [Example 116, 5-Methanesulfonyl-1-{3-[4-(1H-pyrrolo[2,3-b]pyridin-3-yl)-piperidin-1-yl]-propyl}-3-(4-trifluoromethyl-phenyl)-4,5,6,7-tetrahydro-1H-pyrazolo[4,3-c]pyridine] | 250 |
| CS(=O)(=O)N1CCc2c(c(-c3ccc(C(F)(F)F)cc3)nn2CC(O)CN2CCC(c3c[nH]c4c3ccc[n+]4[O-])CC2)C1 (stereo not drawn) [Example 121, 1-[5-Methanesulfonyl-3-(4-trifluoromethyl-phenyl)-4,5,6,7-tetrahydro-pyrazolo[4,3-c]pyridin-1-yl]-3-[4-(7-oxy-1H-pyrrolo[2,3-b]pyridin-3-yl)-piperidin-1-yl]-propan-2-ol] | 310 |
| CS(=O)(=O)N1CCc2c(c(-c3ccc(C(F)(F)F)cc3)nn2CC(O)CN2CCC(c3c[nH]c4nc(N5CCOCC5)ccc34)CC2)C1 (stereo not drawn) [Example 122, 1-[5-Methanesulfonyl-3-(4-trifluoromethyl-phenyl)-4,5,6,7-tetrahydro-pyrazolo[4,3-c]pyridin-1-yl]-3-[4-(6-morpholin-4-yl-1H-pyrrolo[2,3-b]pyridin-3-yl)-piperidin-1-yl]-propan-2-ol] | 190 |
| CS(=O)(=O)N1CCc2c(c(-c3ccc(Br)cc3)nn2CC(O)CN2CCC(c3c[nH]c4ccncc34)CC2)C1 (stereo not drawn) [Example 124, 1-[3-(4-Bromo-phenyl)-5-methanesulfonyl-4,5,6,7-tetrahydro-pyrazolo[4,3-c]pyridin-1-yl]-3-[4-(1H-pyrrolo[3,2-c]pyridin-3-yl)-piperidin-1-yl]-propan-2-ol] | 130 |
| COC(=O)n1cc(C2CCN(CC(O)Cn3nc(-c4ccc(C(F)(F)F)cc4)c4c3CCN(S(C)(=O)=O)C4)CC2)c2c[n+]([O-])ccc21 (stereo not drawn) [Example 126, 3-(1-{2-Hydroxy-3-[5-methanesulfonyl-3-(4-trifluoromethyl-phenyl)-4,5,6,7-tetrahydro-pyrazolo[4,3-c]pyridin-1-yl]-propyl}-piperidin-4-yl)-5-oxy-pyrrolo[3,2-c]pyridine-1-carboxylic acid methyl ester] | 250 |

Molecules with a lower IC50, results first:

| IC50 [nM] | Structure (SMILES) |
| --- | --- |
| 110 | CC(=O)N1CCc2c(c(-c3ccc(C(F)(F)F)cc3)nn2CC(O)CN2CCC(c3c[nH]c4ccc(Cl)cc34)CC2)C1 (stereo not drawn) [Example 102, 1-[1-{3-[4-(5-Chloro-1H-indol-3-yl)-piperidin-1-yl]-2-hydroxy-propyl}-3-(4-trifluoromethyl-phenyl)-1,4,6,7-tetrahydro-pyrazolo[4,3-c]pyridin-5-y]-ethanone] |
| 110 | CC(=O)N1CCc2c(c(-c3ccc(C(F)(F)F)cc3)nn2CC(O)CN2CCC(c3cn(CCN4CCOCC4)c4ncccc34)CC2)C1 (stereo not drawn) [Example 114, 1-[1-(2-Hydroxy-3-{4-[1-(2-morpholin-4-yl-ethyl)-1H-pyrrolo[2,3-b]pyridin-3-yl]-piperidin-1-yl}-propyl)-3-(4-trifluoromethyl-phenyl)-1,4,6,7-tetrahydro-pyrazolo[4,3-c]pyridin-5-yl]-ethanone] |
| 90 | CS(=O)(=O)N1CCc2c(c(-c3ccc(C(F)(F)F)cc3)nn2CC(O)CN2CCC(c3c(C(=O)O)sc4cc(F)ccc34)CC2)C1 (stereo not drawn) [Example 132, 6-Fluoro-3-(1-{2-hydroxy-3-[5-methanesulfonyl-3-(4-trifluoromethyl-phenyl)-4,5,6,7-tetrahydro-pyrazolo[4,3-c]pyridin-1-yl]-propyl}-piperidin-4-yl)-benzo[b]thiophene-2-carboxylic acid] |
| 40 | CS(=O)(=O)N1CCc2c(c(-c3ccc(Br)cc3)nn2CC(O)CN2CCC(c3c[nH]c4c(Cl)cccc34)CC2)C1 (stereo not drawn) [Example 107, 1-[3-(4-Bromo-phenyl)-5-methanesulfonyl-4,5,6,7-tetrahydro-pyrazolo[4,3-c]pyridin-1-yl]-3-[4-(7-chloro-1H-indol-3-yl)-piperidin-1-yl]-propan-2-ol] |
